Columns and labels:
[1] = target: T1, NAD-dependent protein deacetylase sirtuin-3, mitochondrial (Homo sapiens) (UniProt Q9NTG7); assay: (§1) Modulation of human Sirt3 (118 to 399 residues) deacetylation activity under non-steady state assessed as substrate deacetylation at low enzyme concentration with [E]0/[NAD+]0 ratio of 0.1 at 25 uM incubated for 5 mins using MnSOD peptide as substrate in presence of NAD+ by HPLC-assay relative to control; settings: filed as modulator
T1 sequence (whole entry): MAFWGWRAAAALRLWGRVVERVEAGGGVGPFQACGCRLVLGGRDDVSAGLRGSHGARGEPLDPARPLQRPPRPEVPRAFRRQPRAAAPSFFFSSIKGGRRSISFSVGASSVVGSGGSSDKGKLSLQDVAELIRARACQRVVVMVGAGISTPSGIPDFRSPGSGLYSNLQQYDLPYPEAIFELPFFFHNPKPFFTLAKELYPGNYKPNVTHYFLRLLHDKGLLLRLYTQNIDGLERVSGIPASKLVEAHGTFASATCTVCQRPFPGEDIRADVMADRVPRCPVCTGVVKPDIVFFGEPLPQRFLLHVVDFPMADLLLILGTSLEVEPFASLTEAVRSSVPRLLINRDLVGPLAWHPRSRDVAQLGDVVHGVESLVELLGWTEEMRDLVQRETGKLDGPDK

[2] = target: T1, NAD-dependent protein deacetylase sirtuin-3, mitochondrial (Homo sapiens); assay: as §1, with “10” for “25”; settings: filed as modulator

Activity [1]: 122% | Activity [2]: 109%
Structure (SMILES): CCCCNC(=O)COc1ccc2c(c1)CCc1ccccc1C2NC(=O)CCCOc1cc([N+](=O)[O-])c(C(C)O)cc1OC (configuration not stated)

— ChEMBL document CHEMBL5214958, “Discovery of novel compounds as potent activators of Sirt3” (Bioorg Med Chem, 2022)
